System: experimental amnestic rats
Test: passive avoidance response of rats (scopolamine-induced amnesia), retention test
Format: in vivo, male Wister SLC rat
Conditions: scopolamine 3 mg/kg i.p.
Experimental: The method of assay of the anti-amnestic action was carried out according to the method reported by A. Kubota et al. in Int. […] A passive avoidance chamber used in this test was surrounded with inside-visible transparent plastic plates and included an electrifiable grid floor (30 cm in length and 30 cm in width) capable of being derivered with an electric current of 1.7 mA in strength for electric foot shock and a platform (15 cm in length, 15 cm in width and 4 cm in height) placed at the right back corner thereof. A male Wister SLC rat (weighing 100-150 g) was placed in the passive avoidance chamber and, when he stepped down on the floor, the electric current was sent to the grid continuously until he went up on the platform. Repeating this test with another rat, the rats stayed on the platform for more than 15 seconds were taken out of the chamber, being regarded to have learned the situation. This electric shock was normally 2 or 3 times. To avoid any difference in the rats, those required 10 seconds for the first step-down and those stepped down on the floor at least 5 times were excluded. Among the learned or trained rats, the first control group of them were intraperitoneally administered with 0.5% CMC solution and the other groups of them were intraperitoneally administered with scopolamine hydrobromide in a dose of 3 mg/Kg to prepare experimental amnestic rats. The prolinal derivatives of the general formula to be tested were in each case intraperitoneally or orally administered to the rats in an amount shown in Table 1 or 2 one after completion of the learning. In each case, the polinal derivatives are used as having been dissolved or suspended in a 0.5% CMC solution.

SMILES: O=C[C@@H]1CCCN1C(=O)[C@@H]1CCCN1C(=O)OCc1ccccc1 [N--Benzyloxycarbonyl-prolyl-prolinal, N-benzyloxycarbonyl-prolyl-prolinal]
- Retention Test Latency, 24 hr (2.2 mg/kg i.p. after training): 192.0 s
- Retention Test Latency, 48 hr (2.2 mg/kg i.p. after training): 141.5 s
- Retention Test Latency, 24 hr (2.2 mg/kg p.o. after training): 140.2 s
- Retention Test Latency, 48 hr (2.2 mg/kg p.o. after training): 102.3 s

Reference: patent US4687778A, “Anti-amnestic agent” (Kabushiki Kaisha Yakult Honsha, priority 1984, dated 1987)
